Screening data deposited in PubChem by Broad Institute.
PglD inh: inhibitors of Campylobacter jejuni PglD acetyltransferase. actives 0.098% (n = 360,000). AID 602405. inhibition, % at 12.5 µM. purified PglD enzyme, DTNB colorimetric CoA detection; in the data active = inhibition above about 16%, passing the limit was not always enough; inconclusive = no clear call, values can overlap the other calls
miR-122 sensor: miR-122 inhibition in Huh7 cells. actives 0.3% (n = 340,000). Huh7 miR-122 Renilla luciferase sensor, 48 h; neutral wells = 0, positive control = 100. activation (reporter increase), % at 12.5 µM. AID 602342;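 active = mean replicate activation score at least 90 and every replicate individually at or above 90; inconclusive = only one of the two criteria met; inactive = neither criterion met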;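 note: higher luciferase means less miR-122 activity so hits act as miR-122 inhibitors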
EWS-Fli inh: inhibitors of EWS/Fli oncoprotein transcriptional activity; A673 NR0B1-luciferase reporter, viability-normalised; inhibition, % at 12.6 µM; actives 0.67% (n = 350,000); AID 651661;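 active = mean inhibition of at least 50% after viability correction, with every replicate also passing that limit; inconclusive = mean reaches 50% but only one of two replicates passes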;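 note: firefly luciferase signal divided by Alamar Blue viability fluorescence both relative to DMSO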
F508del corr: CFTR F508del correction in bronchial cells. AID 720511. activity (quench increase), % at 7.58 µM. CFBE cells, YFP halide quenching; stimulated with forskolin plus potentiator P3; % fluorescence drop versus neutral controls. actives 0.36% (n = 350,000);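 active = mean added fluorescence quench of at least 8% versus neutral control, with both replicates also reaching 8%; inconclusive = only one of the mean or replicate conditions met; inactive = mean below 8% and not both replicates reaching 8%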;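 note: cells transiently co-express mutant CFTR-F508del with the halide-sensitive YFP; corrector assay measuring rescue of mutant channel to the surface after 24 h compound exposure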
LGR2 inh: inhibitors of bursicon-induced Drosophila LGR2 receptor cAMP signaling; inhibition, % at 9.99 µM; actives 0.35% (n = 380,000); HEK293 LGR2, CRE-luciferase, bursicon-stimulated, 4 h;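 active = drop in luminescence signal, shown as inhibition above about 50% in the replicate tests, limit read from the data, passing the limit was not always enough; inconclusive = probably only some replicates passing the limit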;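 note: agonist challenge used bursicon conditioned medium at about half maximal strength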
Yeast UUG start: modulators of start codon recognition fidelity in yeast | S. cerevisiae UUG-firefly luciferase reporter, luminescence/redox ratio | activity score, % at 18.7 µM | 350,000 tested, 0.13% active;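 active = replicate mean at a twofold rise or more, about +100% in these data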;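 also: firefly luciferase made from a UUG start codon reports start codon fidelity; reporter light over untreated wells divided by growth signal over untreated wells; some hits fall short of that in this replicate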
A number is an active result; . = inactive; ? = inconclusive; / = no result. In the library only some 1.3% were active in any assay of this set; here they are far more common.

SMILES | PglD inh | miR-122 sensor | EWS-Fli inh | F508del corr | LGR2 inh | Yeast UUG start
CCc1ccc2oc(-c3ccc(OC)cc3)cc(=Nc3c(C)n(C)n(-c4ccccc4)c3=O)c2c1 | / | / | . | . | 83 | /
CCc1ccc2oc(-c3ccc(OC)cc3)cc(=Nc3cccc(C(=O)O)c3)c2c1 | . | . | . | / | 84 | .
C=CCn1c(-c2ccc(OC)cc2)csc1=Nc1c(C)n(C)n(-c2ccccc2)c1=O | . | . | / | / | / | .
CCCCc1nc(Cl)c(CO)n1Cc1ccc(-c2ccccc2-c2nnn[nH]2)cc1 | . | . | . | . | . | .
CCCCc1nc(Cl)c(CO)n1Cc1ccc(-c2ccccc2-c2nn[nH]n2)cc1 | . | . | . | 8.1 | . | .
CN(C)c1cccc(C(=O)N/N=C/c2ccccc2F)c1 | / | / | . | . | 86 | /
CCc1nc2ccccc2n1Cc1ccc(F)cc1 | / | / | . | . | . | /
Cc1cccc(NS(=O)(=O)c2cc3c4c(c2)CCC(=O)N4CCC3)c1 | / | 181 | . | . | . | /
O=C1CCc2cc(NS(=O)(=O)c3ccccc3)cc3c2N1CCC3 | / | . | . | . | . | /
CCOC(=O)c1csc(NC(=O)c2cc(-c3ccccn3)nc3ccccc23)n1 | . | / | . | . | . | .
C=CCSc1nc(C)cc(C(=O)OCC)c1C#N | . | . | . | . | . | .
COc1ccc(Cc2nnc(NC(=O)c3ccc(C)cc3)s2)cc1OC | . | . | . | . | . | .
COc1ccc(Cc2nnc(NC(=O)c3ccc(F)cc3)s2)cc1OC | . | . | . | 8.6 | . | .
CCc1ccc(OCc2n[nH]c(=S)n2C(C)CCCC(C)C)cc1 (configuration not stated) | / | / | . | 17 | . | /
N#Cc1c(N)[nH]c2ccc(Sc3ccccc3)cc12 | / | . | 61 | . | . | /
CS(=O)(=O)NNC(=O)c1sccc1OCc1ncc(C(F)(F)F)cc1Cl | . | . | . | . | . | .
CC(=O)c1cc(F)ccc1OCC(=O)N1CCCc2ccccc21 | . | . | . | . | . | .
CC(C)CN(CCCNC(=O)CN1C(=O)CSc2ccc(S(=O)(=O)N3CCOCC3)cc21)CC(C)C | / | / | . | 10 | . | /
CSc1nnc2c3cc(F)ccc3n(Cc3ccccc3)c2n1 | . | 164 | / | / | / | .
CCOC(=O)c1c(NC(=O)CN2CCN(S(=O)(=O)c3cc(Cl)ccc3Cl)CC2)sc(C(=O)N(C)C)c1C | . | . | . | . | . | .
Cc1ccc(NC(=O)c2ccc(Cl)c(S(=O)(=O)Nc3c(C)n(C)n(-c4ccccc4)c3=O)c2)cc1Cl | . | / | . | 12 | . | .
C=CCOc1c(Cl)cc(C(=S)N2CCCC2)cc1OCC | . | . | 58 | ? | . | .
CCOc1cc(C(=S)N2CCCC2)ccc1O | . | . | . | . | . | .
COc1ccccc1C#Cc1ccc([C@H]2[C@@H](C#N)N(C(=O)C3CCCC3)[C@@H]2CO)cc1 | / | / | . | . | . | /
N#C[C@@H]1[C@H](c2ccc(C#Cc3cccc(F)c3)cc2)[C@@H](CO)N1C(=O)C1CCC1 | . | / | . | . | 72 | .
SMILES | PglD inh | miR-122 sensor | EWS-Fli inh | F508del corr | LGR2 inh | Yeast UUG start
COc1ccccc1C#Cc1ccc([C@H]2[C@H](C#N)N(C(=O)C3CCCC3)[C@H]2CO)cc1 | / | / | . | . | 80 | /
CC=Cc1ccc2n(c1=O)C[C@H]1[C@H](CO)[C@@H](C(=O)NC3Cc4ccccc4C3)N(CC3CC3)[C@@H]21 (mixture of isomers) | . | . | . | . | . | .
Nc1[nH]ncc1C(=O)Nc1cccc(C(F)(F)F)c1 | . | . | / | / | / | .
COc1ccc([N+](=O)[O-])cc1Nc1c2ccccc2nc2ccccc12 | . | . | . | 13 | . | .
O=C(O)c1cc(S(=O)(=O)O)cc(Nc2c3ccccc3nc3ccccc23)c1O | . | . | . | . | . | .
COc1cc(NS(C)(=O)=O)ccc1Nc1c2ccccc2nc2ccccc12 | . | . | 58 | . | . | .
CCNC(=O)c1cc2c(c(-c3cccc(-c4ccccc4F)c3)n1)[C@H](CCO)N(C(=O)CC1CC1)C2 | / | / | . | . | . | /
O=C(CSc1nnc(-c2ccccc2)n1Cc1ccccc1)NNC(=O)c1ccccc1O | . | . | 79 | / | . | .
Cc1cc(C)nc(/N=C(\N)Nc2cccc(OCc3ccccc3)c2)n1 | . | . | 53 | . | . | .
Cc1cc(C)nc(/N=C(\N)Nc2ccc(OCc3ccccc3)cc2)n1 | / | / | . | . | . | /
